INS-1E GSIS act: primary screen for activators of insulin secretion dependent on glucose, INS-1E cells, GLuc reporter luminescence. 0.61% of 370,000 active. activation, % at 16.6 µM. INS-1E GLuc reporter insulin secretion, 2-3 h;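 active means lowest replicate activation of at least 40%, so every replicate reaches that level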;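 further: 0% = median of neutral control wells and 100% = median of IBMX positive control wells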
SMARCA2 act: increases SMARCA2 function in MMTV reporter cells. AID 652017. activation, % at 9.1 µM. 1% of 370,000 active. MG213 cells, MMTV-luciferase reporter, dexamethasone, overnight; in the data active means activation above about 7.8%;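 further: 0% = vehicle wells and 100% = reference activator wells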
NR1D1 modulator: modulators of human Rev-erb alpha DNA binding. P20393. Rev-erbα–FITC-DNA binding, fluorescence polarization, 90 min. activity, % at 10 µM. 0.79% of 370,000 active. AID 1259318;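 active means activity above about 14%, limit read from the data; passing the limit was not always enough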;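 further: 0% = DMSO wells with 35 nM protein and 100% = DMSO wells with 750 nM protein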
Yeast UUG start: alters start codon recognition fidelity in yeast. S. cerevisiae UUG-firefly luciferase reporter, luminescence/redox ratio. AID 602363. activity score, % at 18.7 µM. hit rate 0.13% among 350,000;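 active = replicate mean at a twofold rise or more, about +100% in these data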;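 note: firefly luciferase made from a UUG start codon reports start codon fidelity; reporter light over untreated wells divided by growth signal over untreated wells; some hits fall short of that in this replicate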
PDI inh: PDI (human) enzyme inhibition; PDI insulin aggregation turbidity, A650, 90 min; inhibition, % at 10 µM; 0.052% of 350,000 active;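 active means mean inhibition across replicates of 30% or more, whatever share of single replicates reach that level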
ERp5 block: ERp5 (human) disulfide isomerase inhibition; inhibition, % at 9.99 µM; Q15084; AID 651711; 0.05% of 350,000 active; ERp5 insulin aggregation, absorbance 650 nm, 90 min;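 active means mean replicate inhibition above about 25%, with every replicate also reaching it, limit read from the data, passing the limit was not always enough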
* marks the source's active call; other numbers are inactive results; . = not tested or not shown. Hits are enriched below; roughly 2.1% of the tested compounds scored in any of these assays.

Letters: A = INS-1E GSIS act; B = SMARCA2 act; C = NR1D1 modulator; D = Yeast UUG start; E = PDI inh; F = ERp5 block
Cc1noc(C)c1NC(=O)N(C)C[C@H]1OCCCC[C@@H](C)Oc2ccc(NS(=O)(=O)c3ccc(Cl)cc3)cc2C(=O)N([C@H](C)CO)C[C@H]1C
  A: -7.3; B: .; C: .; D: 26.9; E: .; F: -1.3
COCC(=O)N1CC2(C1)[C@H](c1ccc(-c3ccccc3)cc1)[C@H](CO)N2C(=O)COC
  A: 5.7; B: .; C: .; D: .; E: .; F: -0.7
CC(C(=O)Nc1ccc2[nH]c(=O)[nH]c2c1)N1CCN(Cc2ccc3c(c2)OCO3)CC1 (stereo not drawn)
  A: 60.4*; B: -0.6; C: -2.8; D: -10.2; E: -3.5; F: -0.7
CC1(C(=O)NS(=O)(=O)c2ccc(C#N)cc2)CCN1C(=O)C1(c2ccccc2)CCCC1 (stereo not drawn)
  A: 98.8*; B: 4.9; C: 9.2; D: -1.6; E: -0.4; F: -0.7
C/C=C1\COC(C(=O)NCc2ccccc2)(C(F)(F)F)C=C1C=C1CCCCC1 (stereo not drawn)
  A: 140.9*; B: 0.8; C: -2.4; D: -16.2; E: -5.4; F: 1.6
CC(C)(C)OC(=O)N1O[C@H]2CC1[C@@H]1[C@@H]2N=NN1CCc1ccncc1
  A: 5.2; B: -1.5; C: -4.3; D: -7.2; E: -7.1; F: -0.8
CC(C)(C)OC(=O)N1O[C@H]2C[C@@H]1[C@@H]1[C@@H]2N=NN1C12CC3CC(CC(C3)C1)C2
  A: 44.3*; B: -1.7; C: 4.6; D: -5.5; E: 4.1; F: -0.5
C[C@@H]1CN([C@H](C)CO)C(=O)c2cc(C#Cc3ccccc3F)cnc2O[C@H]1CN(C)C(=O)C1CC1
  A: -7.9; B: .; C: .; D: 10.3; E: .; F: 1.9
O=C(C[C@H]1CC[C@H]2[C@@H](COC[C@@H](O)CN2C(=O)C2CC2)O1)NCc1ccccc1Cl
  A: -2.7; B: .; C: .; D: -6.1; E: .; F: -2.0
CCCCc1c(-c2ccccc2OC)ncn1Cc1ccc(-c2ccccc2)cc1
  A: -24.9; B: -8.4; C: 10.0; D: .; E: .; F: -4.6
CCCCc1c(-c2ccccc2OC)ncn1Cc1ccc(C)cc1
  A: 66.0*; B: -11.0; C: 7.3; D: .; E: .; F: 2.4
CCCCc1c(-c2ccccc2OC)ncn1Cc1ccccc1C
  A: 186.4*; B: -7.1; C: 6.1; D: .; E: .; F: 2.5
CCCCc1c(-c2ccccc2OC)ncn1Cc1ccccc1F
  A: .; B: -5.0; C: 1.3; D: .; E: .; F: -1.8
COCC(=O)N1C[C@H](C)[C@@H](OC)CN(C)C(=O)c2cc(NC(=O)c3cnccn3)ccc2OC[C@H]1C
  A: 4.7; B: .; C: .; D: -5.4; E: .; F: 0.5
O=C(OCC(=O)N1CCCCC1)c1c[nH]c2ccccc12
  A: -1.6; B: 7.8*; C: 4.8; D: -15.7; E: 4.1; F: 7.2
O=C(OCC(=O)N1CCCC1)c1c[nH]c2ccccc12
  A: -2.5; B: 6.9; C: -10.2; D: -22.8; E: -8.3; F: 5.3
COC(=O)CSc1cnc2ccccc2n1
  A: .; B: 1.3; C: 4.0; D: -10.5; E: -3.9; F: .
COC(=O)CSc1nc2ccccc2nc1SCC(=O)OC
  A: 66.9*; B: 0.9; C: 13.9; D: -12.9; E: -4.8; F: .
CO[C@H]1CN(C)C(=O)c2cc(NC(=O)Nc3ccccc3F)ccc2OC[C@@H](C)N(CC2CC2)C[C@H]1C
  A: -5.7; B: .; C: .; D: 5.5; E: .; F: -3.6
O=C(Cc1cccs1)N[C@H]1C(=O)N2C(C(=O)O)=C(C[n+]3ccccc3)CSC12 (stereo partly drawn)
  A: .; B: .; C: -0.8; D: .; E: .; F: .
Cc1noc(C)c1S(=O)(=O)Nc1ccc2c(c1)CC(=O)N([C@H](C)CO)C[C@@H](C)[C@@H](CN(C)S(C)(=O)=O)O2
  A: 22.0; B: .; C: .; D: 11.5; E: .; F: .
C[C@H](NC(=O)C[C@@H]1C=C[C@@H](NC(=O)Cc2ccccn2)[C@@H](CO)O1)c1ccccc1
  A: 17.4; B: .; C: .; D: .; E: .; F: 1.9
CCOc1ccc(CCNC(=O)c2cc([N+](=O)[O-])ccc2N2CCOCC2)cc1OCC
  A: -14.7; B: 7.9*; C: -1.3; D: 0.1; E: 0.8; F: -1.1
CCOc1ccc(CCNC(=O)COC(=O)c2cc([N+](=O)[O-])ccc2N2CCOCC2)cc1OCC
  A: 25.7; B: 0.4; C: 0.4; D: 20.6; E: 3.5; F: 2.6
CN1C(=O)c2cc(NC(=O)C3CCCCC3)ccc2OC[C@H]2O[C@@H](CC(=O)NCCc3ccncc3)CC[C@@H]21
  A: -13.1; B: .; C: .; D: 2.2; E: .; F: .

Given with bars between the fields: 3 of the compounds above
smiles | INS-1E GSIS act | SMARCA2 act | NR1D1 modulator | Yeast UUG start | PDI inh | ERp5 block
C/C=C1\COC(C(=O)NCc2ccccc2)(C(F)(F)F)C=C1C=C1CCCCC1 (stereo not drawn) | 140.9* | 0.8 | -2.4 | -16.2 | -5.4 | 1.6
CC(C)(C)OC(=O)N1O[C@H]2CC1[C@@H]1[C@@H]2N=NN1CCc1ccncc1 | 5.2 | -1.5 | -4.3 | -7.2 | -7.1 | -0.8
CC(C)(C)OC(=O)N1O[C@H]2C[C@@H]1[C@@H]1[C@@H]2N=NN1C12CC3CC(CC(C3)C1)C2 | 44.3* | -1.7 | 4.6 | -5.5 | 4.1 | -0.5

Next part
Letters: A = INS-1E GSIS act; B = SMARCA2 act; C = NR1D1 modulator; D = Yeast UUG start; E = PDI inh; F = ERp5 block
C[C@H]1CN([C@@H](C)CO)C(=O)Cc2cc(NC(=O)CCN3CCOCC3)ccc2O[C@H]1CN(C)C(=O)NC1CCCCC1
  A: 0.2; B: .; C: .; D: 8.6; E: .; F: 4.1
COCC(=O)Nc1ccc2c(c1)[C@@H]1C[C@H](CC(=O)N3CCc4ccccc4C3)O[C@@H](CO)[C@@H]1O2
  A: -8.5; B: .; C: .; D: 0.4; E: .; F: 0.6
Cc1ccc(-c2cnc3cccnn23)cc1F
  A: 45.7*; B: 1.5; C: 0.2; D: -15.0; E: 10.0; F: 0.2
Cc1noc(C)c1NC(=O)NCC[C@H]1CC[C@@H](NC(=O)Cc2cccnc2)[C@H](CO)O1
  A: 5.9; B: .; C: .; D: -3.1; E: .; F: -1.4
CC(=O)Nc1ccc(C=NNC(=O)CCCC(=O)NN=Cc2ccc(NC(C)=O)cc2)cc1
  A: 41.5*; B: -1.0; C: -3.0; D: -25.5; E: 7.0; F: 11.2
O=C(C1CCOCC1)N1CC(=O)N2[C@H](CO)[C@H](c3ccc(C#CC4CC4)cc3)[C@H]2C1
  A: -0.6; B: .; C: .; D: .; E: .; F: -0.9
O=C(Nc1ccccc1)N[C@H]1CC[C@@H](CCn2cc(-c3ccccc3F)nn2)O[C@H]1CO
  A: -21.8; B: .; C: .; D: .; E: .; F: -11.8
CN(C)CCCNc1cc(C(C)(C)C)nc2c(-c3ccc(Cl)cc3)cnn12
  A: 411.2*; B: -2.6; C: -0.7; D: -23.7; E: -3.0; F: 4.4
CC(C)(C)c1cc(NCc2ccccn2)n2ncc(-c3ccc(Cl)cc3)c2n1
  A: .; B: -5.9; C: 12.2; D: -8.9; E: -0.3; F: 2.6
O=C(/C=C/c1cccnc1)c1cccc(O)c1
  A: -12.3; B: -1.7; C: -1.9; D: -15.1; E: 44.4*; F: 3.9
C[C@@H]1CN(C)C(=O)Cc2cc(N(C)C)ccc2O[C@H]1CN(C)C(=O)OC(C)(C)C
  A: -10.8; B: .; C: .; D: .; E: .; F: .
Nc1ccc(S(=O)(=O)Nc2nccc(/C=C/c3cccc([N+](=O)[O-])c3)n2)cc1
  A: 69.6*; B: -1.9; C: -1.2; D: -13.9; E: 5.8; F: 2.6
O=C(C1CC1)N1CCCCN2[C@H](CO)[C@@H](c3ccc(C#CC4CC4)cc3)[C@@H]2C1
  A: .; B: .; C: .; D: 0.7; E: .; F: 3.2
O=C(CCN1CCOCC1)c1ccc(N2CCCCC2)cc1
  A: 51.3*; B: -3.6; C: 1.6; D: 0.3; E: 1.2; F: 0.2
COc1ccc(/C=N/N2CCOCC2)cc1COc1ccc(Cl)cc1
  A: -13.7; B: 7.9*; C: 6.4; D: .; E: -5.3; F: .
O=C1C[C@@H](c2ccc(O[C@@H]3O[C@H](CO)[C@@H](O)[C@H](O)[C@H]3O)cc2)Oc2cc(O)ccc21
  A: 18.2; B: 1.1; C: 6.7; D: -7.9; E: 35.7*; F: 3.2
COc1ccc2c3c([nH]c2c1)[C@@H](CO)N(C(=O)C1CCCCC1)CC31CCN(S(C)(=O)=O)CC1
  A: 7.3; B: .; C: .; D: .; E: .; F: 0.8
CC1(C)CC(=O)C=C(c2ccccc2-c2ccc(S(C)(=O)=O)cc2)C1=O
  A: 48.7*; B: -4.9; C: 0.4; D: 1.7; E: -3.1; F: -1.5
O=S(=O)(c1ccccc1)N1C[C@@H]2[C@H](c3ccccc31)[C@@H](CO)N2Cc1ccc(F)cc1
  A: 6.1; B: .; C: .; D: 4.3; E: .; F: -1.0
Cc1cccc(CS(=O)(=O)c2ncc(Cl)c(C(=O)Nc3c(C)cccc3C)n2)c1
  A: 79.8*; B: -12.9; C: 2.2; D: -21.6; E: -6.4; F: 3.4
O=S(=O)(c1ccccc1)N1N=C(c2ccc(O)cc2)CC1c1ccco1 (stereo not drawn)
  A: -0.7; B: -0.6; C: 3.1; D: -14.1; E: 38.2*; F: 11.3

Screens: PubChem BioAssay, several laboratories
